# Values quoted from earlier work in PMC9398166 (Molecular Cancer Therapeutics, 2021).
# Test system: ALK+ NSCLC
# Details: patients with ALK+ NSCLC, first-line setting; cited from earlier work
compound,measurement,value
"C[C@@H](Oc1cc(-c2cnn(C3CCNCC3)c2)cnc1N)c1c(Cl)ccc(F)c1Cl [Crizotinib, crizotinib]",objective response rate,74%
